Data on 74 molecules can be found in PubChem BioAssay AID493087 (The Scripps Research Institute Molecular Screening Center, 2011).

Amino acid sequences for entries named in this document (tags omitted).
UniProt P14735, whole entry: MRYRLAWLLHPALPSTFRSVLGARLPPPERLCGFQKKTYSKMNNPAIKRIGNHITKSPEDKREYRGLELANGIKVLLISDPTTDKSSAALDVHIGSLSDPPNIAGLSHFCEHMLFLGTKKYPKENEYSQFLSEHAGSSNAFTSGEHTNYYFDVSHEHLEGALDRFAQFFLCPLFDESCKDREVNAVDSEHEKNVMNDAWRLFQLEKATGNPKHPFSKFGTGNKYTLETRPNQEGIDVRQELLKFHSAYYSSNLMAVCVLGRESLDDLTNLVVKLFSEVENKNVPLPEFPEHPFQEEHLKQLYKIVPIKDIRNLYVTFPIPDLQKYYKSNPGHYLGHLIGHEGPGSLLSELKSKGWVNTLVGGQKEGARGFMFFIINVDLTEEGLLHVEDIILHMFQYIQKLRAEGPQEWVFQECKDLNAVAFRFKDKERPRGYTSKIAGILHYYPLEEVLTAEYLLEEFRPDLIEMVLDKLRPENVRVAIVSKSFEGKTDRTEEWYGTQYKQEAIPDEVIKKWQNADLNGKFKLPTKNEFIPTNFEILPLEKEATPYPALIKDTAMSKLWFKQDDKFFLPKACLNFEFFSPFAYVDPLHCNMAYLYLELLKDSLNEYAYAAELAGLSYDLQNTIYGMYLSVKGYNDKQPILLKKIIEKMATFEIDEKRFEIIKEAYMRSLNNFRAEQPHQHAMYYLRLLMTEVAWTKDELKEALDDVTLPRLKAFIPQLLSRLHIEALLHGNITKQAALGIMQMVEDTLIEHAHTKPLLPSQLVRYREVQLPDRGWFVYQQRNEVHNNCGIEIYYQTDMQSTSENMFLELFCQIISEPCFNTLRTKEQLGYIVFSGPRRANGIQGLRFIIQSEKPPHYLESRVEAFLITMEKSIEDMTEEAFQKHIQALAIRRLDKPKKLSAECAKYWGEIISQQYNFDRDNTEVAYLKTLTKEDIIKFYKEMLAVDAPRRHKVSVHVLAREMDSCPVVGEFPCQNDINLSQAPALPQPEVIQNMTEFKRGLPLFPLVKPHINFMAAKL

Only a part is listed here, and it is no random draw. Active and inactive are the calls of the source.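 Rule for the calls: active = activation above the mean of all tested compounds plus 3 SD, set per screening campaign (cut at about 17% in these data); inactive = the rest.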

The target of the test is Insulin-degrading enzyme (Homo sapiens) (UniProt P14735). The test is described as follows: enhanced cellular IDE Abeta cleavage – fluorescence polarization, HEK cells, FAbeta-B substrate, primary screen (AID 493087). The settings on record: at 5.96 µM, active compounds read high, 0% vehicle, 100% cell-free pure enzyme wells. (In fluorescence polarisation assays a small probe gives low polarisation when free and higher when bound to something large.)
Turning to `CCCOc1ccc(C(=O)NCC2(N(C)C)CCCCC2)cc1OC`, the activation was inactive: 4.43%.

Consider `CN1CCC(Nc2cccc(F)c2)CC1`, for which the activation is inactive: 1.73%.

On to `O=C(NCC1(N2CCCCC2)CCCCC1)c1cncc(Br)c1`, for which the activation is inactive: 2.03%.

For the molecule `COc1cc(OC)c(C(=O)NCC2(N(C)C)CCCCC2)cc1OC`, the activation was inactive: 2.46%.

Regarding `O=C(NCC1(N2CCOCC2)CCCCC1)c1cc(F)c(F)cc1Cl`, the activation is inactive: 3.99%.

For `CC(C)c1ccc(NC2CCN(C(=O)OC(C)(C)C)CC2)cc1`, the activation was inactive: 5.75%.

With `COc1ccc(CN(CCCl)CCCl)cc1Cl`, the activation is inactive: 4.54%.

As to `CN(C)c1cccc(C(=O)NCC2(N3CCCCC3)CCCCC2)c1`, the activation is inactive: 3.36%.

Take `O=C(NCC1(N2CCOCC2)CCCCC1)c1cc(=O)[nH]c2ccccc12`: the activation was inactive: -0.38%.

Turning to `COc1cc(C(=O)NCC2(N3CCCCC3)CCCCC2)ccc1OC(F)F`, the activation was inactive: -5.69%.

Consider `COc1ccc(NC2CCN(C(=O)OC(C)(C)C)CC2)cc1`, for which the activation is inactive: -0.49%.

As to `CC(C)c1ccc(C(=O)NCC2(N3CCOCC3)CCCCC2)cc1`, the activation is inactive: 5.5%.

Regarding `CN1CCN(CCOC(=O)C(O)(c2ccccc2)c2ccccc2)CC1`, the activation is inactive: 3.41%.

With `O=C(NCC1(N2CCCCC2)CCCCC1)c1cccc(C(F)(F)F)c1`, the activation was inactive: 4.62%.

In the case of `CCN1CCC(Nc2ccc(Cl)cc2)CC1`, the activation is inactive: 1.78%.

As to `N#CC1(Nc2ccccc2)CCN(CCc2ccccc2)CC1`, the activation was inactive: -1.49%.

As to `O=C(NCC1(N2CCCCC2)CCCCC1)c1cccc([N+](=O)[O-])c1`, the activation is inactive: -2.62%.

Regarding `CSc1ccc(C(=O)NCC2(N3CCOCC3)CCCCC2)cc1`, the activation is inactive: 5.69%.

Regarding `O=C(NCC1(N2CCCCC2)CCCCC1)c1ccc(OC(F)F)cc1`, the activation is inactive: 1.11%.

For `CCOC(=O)N1CCC(Nc2cccc(C)c2)CC1`, the activation was inactive: 0.91%.

Turning to `COc1cc(C(=O)NCC2(N(C)C)CCCCC2)ccc1OC(F)F`, the activation is inactive: 4.68%.

With `CCCCOc1ccc(C(=O)NCC2(N3CCOCC3)CCCCC2)cc1`, the activation is inactive: 3.35%.

On to `O=P1(N(CCCl)CCCl)SCCCS1`, for which the activation is inactive: -2.38%.

For `O=C(NCC1(N2CCCCC2)CCCCC1)c1ccc(F)cc1`, the activation was inactive: 5.8%.

Regarding `CCOC(=O)N1CCC(Nc2ccc(F)cc2)CC1`, the activation was inactive: 1.66%.

For the molecule `COc1ccc(NC2CCN(CCc3ccccc3)CC2)c(OC)c1`, the activation was inactive: 11.3%.

For `O=C1CCN(Cc2ccccc2)CC1`, the activation was inactive: 2.67%.

Regarding `CCOc1ccc(C)cc1CN(CCCl)CCCl`, the activation was inactive: -6.91%.

Turning to `O=C(NCC1(N2CCCCC2)CCCCC1)c1ccc(Cl)s1`, the activation was inactive: 0.75%.

On to `N#CC1(Nc2ccccc2)CCN(Cc2ccccc2)CC1`, for which the activation was inactive: 1.53%.

Regarding `O=C(OC1CN2CCC1CC2)C1c2ccccc2Oc2ccccc21` (centres undefined), the activation was inactive: 1.67%.

For the molecule `COc1ccc(Cl)cc1C(=O)NCC1(N2CCOCC2)CCCCC1`, the activation was inactive: -0.78%.

Take `CCOC(=O)N1CCC(Nc2ccc(OC)cc2)CC1`: the activation is inactive: 2.68%.

In the case of `O=C(NCC1(N2CCCCC2)CCCCC1)c1ccc(Cl)nc1`, the activation was inactive: -2.61%.

With `Cc1cc(C)cc(N(C(=O)c2ccccc2)C2CCN(C(=O)OC(C)(C)C)CC2)c1`, the activation was inactive: -4.65%.

On to `O=C(NCC1(N2CCOCC2)CCCCC1)c1cc2ccccc2o1`, for which the activation is inactive: -0.11%.

Turning to `CSc1ccccc1C(=O)NCC1(N2CCCCC2)CCCCC1`, the activation is inactive: 4.13%.

Consider `Cc1cccc(NC2(C#N)CCN(Cc3ccccc3)CC2)c1`, for which the activation is inactive: 4.83%.

Regarding `COc1ccc(C(=O)NCC2(N3CCCCC3)CCCCC2)cc1`, the activation is inactive: -0.09%.

Consider `COc1ccc(C(=O)NCC2(N3CCCCC3)CCCCC2)c(OC)c1OC`, for which the activation is inactive: 2.07%.

Regarding `CC(C)(C)OC(=O)N1CCC(N(C(=O)c2ccccc2)c2ccc(F)cc2)CC1`, the activation was inactive: 0.34%.

Consider `O=C(NCC1(N2CCCCC2)CCCCC1)c1ccc(=O)[nH]c1`, for which the activation is inactive: -5.07%.

Consider `O=C(NCC1(N2CCCCC2)CCCCC1)c1cccs1`, for which the activation is inactive: 4.39%.

In the case of `CN1CCC(Nc2ccc(Cl)cc2)CC1`, the activation was inactive: 1.51%.

Turning to `COc1cccc(C(=O)N(c2cc(C)cc(C)c2)C2CCN(C(=O)OC(C)(C)C)CC2)c1`, the activation was inactive: -0.42%.

Regarding `COc1cc(OC)cc(C(=O)NCC2(N3CCOCC3)CCCCC2)c1`, the activation was inactive: 0.98%.

Turning to `CCC(CO)(C(=O)OC1CN2CCC1CC2)c1ccccc1` (centres undefined), the activation was inactive: 4.91%.

Consider `CC(C)(C)OC(=O)N1CCC(Nc2ccccc2)CC1`, for which the activation was inactive: 1.38%.

As for `O=C(O)C1(Nc2ccccc2)CCN(Cc2ccccc2)CC1`, the activation is inactive: 0.63%.

As to `CCCOc1ccc(C(=O)NCC2(N(C)C)CCCCC2)cc1`, the activation was inactive: 2.58%.

For the molecule `CCOc1ncccc1C(=O)NCC1(N2CCOCC2)CCCCC1`, the activation was inactive: 2.36%.

Turning to `CN1CCC(Nc2ccc(F)c(Cl)c2)CC1`, the activation is inactive: -6.09%.

Consider `O=C(NCC1(N2CCCCC2)CCCCC1)c1ccco1`, for which the activation is inactive: -1.02%.

For `CN(C)c1ccc(C(=O)NCC2(N3CCCCC3)CCCCC2)cc1`, the activation is inactive: 1.86%.

With `Cn1c(=O)[nH]cc(N(CCCl)CCCl)c1=O`, the activation is inactive: 2.16%.

Take `Cc1ccccc1NC1(C#N)CCN(Cc2ccccc2)CC1`: the activation is inactive: 2.73%.

As to `CCN1CCC(Nc2cccc(F)c2)CC1`, the activation was inactive: -5.45%.

`Cc1ccc(C(=O)NCC2(N3CCCCC3)CCCCC2)o1`: the activation was inactive: 3.3%.

As to `Fc1ccccc1NC1CCN(Cc2ccccc2)CC1`, the activation was inactive: -2.67%.

As to `Cc1ccc(NC2(C#N)CCN(Cc3ccccc3)CC2)cc1`, the activation is inactive: 5.52%.

Consider `CC(=O)N(c1ccccc1)C1CCNCC1`, for which the activation is inactive: 2.47%.

As to `COc1cc(OC)cc(C(=O)NCC2(N3CCCCC3)CCCCC2)c1`, the activation is inactive: 3.31%.

Consider `CN(C)C1(CNC(=O)c2cccc(C#N)c2)CCCCC1`, for which the activation is inactive: 4.39%.

With `c1ccc(CN2CCC(Nc3ccccc3)CC2)cc1`, the activation was inactive: 1.97%.

With `CCCN1CCC(Nc2cc(OC)cc(OC)c2)CC1`, the activation was inactive: 10.1%.

As to `Cc1cc(N(CCCl)CCCl)ccc1C=O`, the activation is inactive: 1.85%.

Regarding `N#Cc1ccc(C(=O)NCC2(N3CCCCC3)CCCCC2)cc1`, the activation was inactive: 3.64%.

For the molecule `CC(C)(C)OC(=O)N1CCC(N(C(=O)c2ccccc2)c2ccc(Cl)cc2)CC1`, the activation is inactive: 0.43%.

For `O=C(OC1CN2CCC1CC2)C1c2ccccc2C=Cc2ccccc21` (centres undefined), the activation was inactive: -3.24%.

Take `CCOC(=O)N1CCC(Nc2ccc(C)cc2)CC1`: the activation was inactive: 7.04%.

As to `N/C(=N\O)c1c(N)no[n+]1[O-]`, the activation is inactive: 0.26%.

Regarding `COc1ccc(C(=O)NCC2(N3CCOCC3)CCCCC2)cc1OC`, the activation was inactive: 2.69%.

As for `COc1cc(C(=O)NCC2(N3CCOCC3)CCCCC2)cc(OC)c1C`, the activation is inactive: 1.07%.

Turning to `O=C(NCC1(N2CCOCC2)CCCCC1)c1cc(Br)ccc1Cl`, the activation is inactive: 2.89%.
